Test results published in ChEMBL document CHEMBL5154915 (J Med Chem, 2022).
Calls of active or inactive are those of the source. The calls are words filed in the database; no cut-off is given here.

The chains behind the UniProt entries cited, without tags or fusion partners. Where a name states a change or a piece, a line headed by the entry shows the natural chain unless it says otherwise.
UniProt P11507: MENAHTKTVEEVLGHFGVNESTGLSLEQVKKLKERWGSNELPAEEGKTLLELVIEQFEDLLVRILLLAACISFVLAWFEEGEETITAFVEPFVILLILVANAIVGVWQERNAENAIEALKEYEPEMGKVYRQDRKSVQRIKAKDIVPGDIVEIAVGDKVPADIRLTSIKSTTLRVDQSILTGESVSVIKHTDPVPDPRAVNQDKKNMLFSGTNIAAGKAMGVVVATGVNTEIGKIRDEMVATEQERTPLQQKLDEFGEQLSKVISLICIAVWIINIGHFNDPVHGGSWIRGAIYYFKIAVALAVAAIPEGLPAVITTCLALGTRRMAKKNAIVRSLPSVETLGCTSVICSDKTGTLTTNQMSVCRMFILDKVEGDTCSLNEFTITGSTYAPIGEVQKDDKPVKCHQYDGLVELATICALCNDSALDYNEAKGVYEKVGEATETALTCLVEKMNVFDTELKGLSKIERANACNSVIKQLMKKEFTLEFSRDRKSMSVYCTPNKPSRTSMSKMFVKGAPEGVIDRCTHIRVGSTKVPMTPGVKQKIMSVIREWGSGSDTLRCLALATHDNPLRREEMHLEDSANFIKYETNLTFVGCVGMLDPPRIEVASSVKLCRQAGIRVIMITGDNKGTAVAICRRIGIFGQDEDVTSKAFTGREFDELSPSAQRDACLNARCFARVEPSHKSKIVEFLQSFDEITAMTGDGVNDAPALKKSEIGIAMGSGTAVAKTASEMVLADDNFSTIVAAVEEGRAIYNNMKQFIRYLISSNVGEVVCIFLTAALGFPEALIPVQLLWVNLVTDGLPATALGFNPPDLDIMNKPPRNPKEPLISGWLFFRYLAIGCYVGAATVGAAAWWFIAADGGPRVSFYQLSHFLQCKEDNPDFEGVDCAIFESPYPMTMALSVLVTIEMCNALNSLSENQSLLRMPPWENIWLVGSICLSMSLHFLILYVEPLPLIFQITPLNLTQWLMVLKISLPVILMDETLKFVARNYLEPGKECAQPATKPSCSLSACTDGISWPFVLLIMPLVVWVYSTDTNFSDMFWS

Key:
[1] = target: Sarcoplasmic/endoplasmic reticulum calcium ATPase 2 (Rattus norvegicus) (UniProt P11507); test: Enhancement of SERCA2a activity in STZ-induced diabetic rat model V-clamped myocytes assessed as acceleration of calcium transient decay at 1 uM by patch clamp method; format: cell-based; settings: Cardiomyocyte, filed as activator
[2] = target: Sarcoplasmic/endoplasmic reticulum calcium ATPase 2 (Rattus norvegicus) (UniProt P11507); test: Enhancement of SERCA2a activity in STZ-induced diabetic rat model V-clamped myocytes assessed as effect on calcium transient amplitude at 1 uM by patch clamp method; format: cell-based; settings: Cardiomyocyte, filed as activator
[3] = target: Sarcoplasmic/endoplasmic reticulum calcium ATPase 2 (Rattus norvegicus) (UniProt P11507); test: Enhancement of SERCA2a activity in STZ-induced diabetic rat model V-clamped myocytes assessed as increased excitation release at 1 uM by patch clamp method; format: cell-based; settings: Cardiomyocyte, filed as activator
[4] = target: Sarcoplasmic/endoplasmic reticulum calcium ATPase 2 (Rattus norvegicus) (UniProt P11507); test: Reversal of STZ-induced SERCA2a depression in STZ-induced diabetic rat model cardiac preparation assessed as increase in Vmax at 500 nM; format: tissue-based; settings: Heart
[5] = target: Sarcoplasmic/endoplasmic reticulum calcium ATPase 2 (Rattus norvegicus) (UniProt P11507); test: Reversal of STZ-induced SERCA2a depression in STZ-induced diabetic rat model cardiac preparation assessed as increase in Vmax at 300 nM; format: tissue-based; settings: Heart

| Compound | Activity [1] | Activity [2] | Activity [3] | Activity [4] [%] | Activity [5] [%] |
| --- | --- | --- | --- | --- | --- |
| C[C@]12CC[C@H](CCCC(=O)O)C[C@@H]1[C@@H](O)C[C@@H]1[C@@H]2CC[C@]2(C)C(=O)CC[C@@H]12 | Active | Active | Active | 17 | 26 |
| C[C@]12CC[C@H](CC(=O)O)C[C@@H]1[C@@H](O)C[C@@H]1[C@@H]2CC[C@]2(C)C(=O)CC[C@@H]12 |  |  |  | 28 | 25 |
